# Measured values published in patent publication US20240065998A1, “MONOACYLGLYCEROL AND FREE FATTY ACID-BASED COMPOSITIONS, METHODS OF MANUFACTURING AND USE OF THE SAME” (priority 2021, published 2024).
# Test system: Influenza A(H1N1)pdm09 (California/07/09)
# Conditions: Table 58B, 70%, 2 min, 37 ± 2° C.; VC titer 5.7
smiles,measurement,value
CCO [Ethanol],LRV,>5.0
